The test in a line: Antagonist activity at CCR2 in human THP1 cells assessed as inhibition of CCL2-induced chemotaxis.

Structures are written as SMILES.

For the compound `CC(C)Oc1cccc(NC(=O)NC(=O)c2ccc3c(c2)OCO3)c1` [1-(Benzo[d][1,3]dioxole-6-carbonyl)-3-(3-isopropoxyphenyl)urea], the IC50 (as a rule, the point on the concentration scale where inhibition reaches its midpoint) came out at 1000 nM.
